# From paper PMC11219871, “Epigenetic-based differentiation therapy for Acute Myeloid Leukemia” (Nature Communications, 2024)
# Legend:
# HL-60 [1] = assay: Cell proliferation assay: GI50; details: read-out: HL-60 GI50; 48 h
# HL-60 [2] = assay: Differentiation-apoptosis assay, CD11b / annexin-V / Sytox Green / myeloid markers flow cytometry; assay type: cell-based, human; details: HL-60, daily 25% GI50, 48 h
smiles,measurement,setting,value
COc1cc2c(OC3CCN(C)CC3)cc(-c3ccc(C)o3)nc2cc1OCCCN1CCCC1,GI50,HL-60 [1],> 10 µM
same,Annexin V (%) Replicate 1,HL-60 [2],0.08%
same,Annexin V (%) Replicate 2,HL-60 [2],0.23%
same,Annexin V (%) Replicate 3,HL-60 [2],0.12%
same,CD11b (%) Replicate 1,HL-60 [2],3.10%
same,CD11b (%) Replicate 2,HL-60 [2],1.50%
same,CD11b (%) Replicate 3,HL-60 [2],11.30%
same,Annexin V + (%),HL-60 [2]; mean of three,0.15%
same,CD11b+ (%),HL-60 [2]; mean of three,5.30%
